The results in this text go back to patent US10166214B2, “Somatostatin receptor subtype 4 (SSTR4) agonists” (Centrexion Therapeutics Corporation, priority 2013, dated 2019).

By UniProt entry, the sequences of proteins in these tests, tags left out. Where a name states a change or a piece, a line headed by the entry shows the natural chain unless it says otherwise.
UniProt P31391: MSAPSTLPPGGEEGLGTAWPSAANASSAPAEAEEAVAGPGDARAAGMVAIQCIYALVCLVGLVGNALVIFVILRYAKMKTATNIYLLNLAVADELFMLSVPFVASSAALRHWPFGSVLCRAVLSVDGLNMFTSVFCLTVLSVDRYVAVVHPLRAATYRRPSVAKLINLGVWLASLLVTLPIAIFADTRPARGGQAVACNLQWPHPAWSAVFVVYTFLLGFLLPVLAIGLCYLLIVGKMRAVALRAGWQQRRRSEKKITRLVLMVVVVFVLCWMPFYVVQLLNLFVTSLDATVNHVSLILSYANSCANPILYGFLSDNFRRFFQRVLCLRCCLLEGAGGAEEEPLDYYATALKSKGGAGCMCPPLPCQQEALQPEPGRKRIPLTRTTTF

The test deals with human Somatostatin 4 receptor (SSTR4) (Homo sapiens (Human), UniProt P31391). Nature of the test: cAMP assay with human somatostatin 4 receptor (hSSTR4 expressing H4 cells). The test is classed as cell-based. The conditions noted are these: read-out: SSTR4 agonism EC50. The procedure:
Method Description for cAMP Assay with Human Somatostatin 4 Receptor
The activation of the SSTR4 receptor (Gi coupled) causes an inhibition of intracellular cAMP after stimulation with Forskolin, which can be quantifiable by use of a suitable assay Kit and an adequate plate reader. This technique is used to characterize pharmacological effects of the SSTR4 receptor agonists by use of hSSTR4 expressing H4 cells.
Compounds are dissolved and diluted in DMSO. The final test solution contains 1% DMSO. […] Cells are centrifuged and suspended in assay buffer (incl. 1:100 diluted Alexa antibody).
For the assay 5 μl of a cell suspension (approximately 5000 cells/well)—incl. Alexa antibody (diluted 1:100) are added into a 384 well MTP microtitre plate excepting one row or column (depending on the plate layout), which is reserved for the standard curve. Then 2 μl of compound sample is added as concentration response curve (e.g. 1e-5 M to 6e-10 M), usually in triplicates. Each assay contains incubations with vehicle controls instead of compound as controls for non-inhibited cAMP generation (100% CTL; ‘high values’) and incubations with 1 μM Somatosatin as controls for full inhibition and background (0% CTL; ‘low values’). […] Then the plates are shaken briefly and incubated for 60 min at room temperature. After 60 min 10 μl of the detection mix is added into all wells followed by an additional incubation period of 1 h. The plates are read in a suitable plate reader.
From this ratio, cAMP concentrations are calculated from standard curve and the EC50 is estimated by least square curve fit program.
Background: Cyclic AMP is a second messenger, typically raised through Gs and lowered through Gi signalling.
As for `CC(C)(NC(=O)[C@H]1[C@@H]2CNC[C@@H]21)c1noc2c(C3CC3)cccc12` [Example 104], the EC50 is 1.7 nM.

In the case of `Cc1nnc(C(C)(C)NC(=O)[C@H]2[C@@H]3CNC[C@@H]32)c2ccccc12` [Example 77], the EC50 is 0.5 nM. In the case of `Cc1cccc2c(C(C)(C)NC(=O)[C@H]3[C@@H]4CNC[C@@H]43)noc12` [Example 92], the EC50 was 0.4 nM.

For `CC(C)(NC(=O)[C@H]1[C@@H]2CNC[C@@H]21)c1ncnc2ccccc12` [Example 89], the concentration for a half-maximal effect (EC50) was found to be 2.6 nM. For the compound `CC(C)(NC(=O)[C@H]1[C@@H]2CNC[C@@H]21)c1cccc2cnccc12` [Example 91], the EC50 amounted to 87.2 nM. As for `CC(C)(NC(=O)[C@H]1[C@@H]2CNC[C@@H]21)c1noc2c(Cl)cccc12` [Example 103], the EC50 turned out to be 0.3 nM. Regarding `CC(C)(NC(=O)[C@H]1[C@@H]2CNC[C@@H]21)c1cncc2ccccc12` [Example 90], the concentration for a half-maximal effect (EC50) amounted to 1.4 nM.

By EC50 is commonly meant the concentration that produces a half-maximal response.
